Target: Cannabinoid receptor 1 (Homo sapiens) (UniProt P21554)
Test: Positive allosteric modulation of CB1 receptor (unknown origin) expressed in HEK293T cell membranes assessed as increase in [3H]CP55,940 binding by liquid scintillation counting method
Summary of the method: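 Membranes from HEK293T cells transiently expressing CB1 (harvested 24 h post-transfection) incubated with 0.5 nM [3H]CP55,940 and at least nine modulator concentrations (100 pM–100 µM) in TME buffer pH 7.4 with 0.2% fatty acid-free BSA; nonspecific binding with 1 µM unlabeled CP55,940; filtration. KB and cooperativity α from nonlinear regression; duplicate, ≥3 experiments, 95% confidence limits.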

The chains behind the UniProt entries cited, without tags or fusion partners.
UniProt P21554, whole entry: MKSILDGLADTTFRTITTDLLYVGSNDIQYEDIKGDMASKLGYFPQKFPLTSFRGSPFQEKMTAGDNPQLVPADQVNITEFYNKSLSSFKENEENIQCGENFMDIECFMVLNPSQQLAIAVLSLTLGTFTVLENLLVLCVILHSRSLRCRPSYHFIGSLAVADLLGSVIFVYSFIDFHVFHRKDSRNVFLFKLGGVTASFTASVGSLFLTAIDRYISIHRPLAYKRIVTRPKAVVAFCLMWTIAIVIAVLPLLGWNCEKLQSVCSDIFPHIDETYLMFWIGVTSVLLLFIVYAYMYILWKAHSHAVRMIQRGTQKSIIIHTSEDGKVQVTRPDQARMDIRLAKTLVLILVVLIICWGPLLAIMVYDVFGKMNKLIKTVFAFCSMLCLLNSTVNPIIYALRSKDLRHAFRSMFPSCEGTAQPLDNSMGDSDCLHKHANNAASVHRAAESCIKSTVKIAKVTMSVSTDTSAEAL

## O=C(Nc1ccc(Cl)cc1)Nc1cccc(-c2cccc(N3CCCC3)n2)c1
  Kb: 54.3 nM
